This is an account of results in BindingDB's records for 27283786 (2016).

The chains behind the UniProt entries cited, without tags or fusion partners. Residues count along the entry.
UniProt P00915, 2-261 limits assumed: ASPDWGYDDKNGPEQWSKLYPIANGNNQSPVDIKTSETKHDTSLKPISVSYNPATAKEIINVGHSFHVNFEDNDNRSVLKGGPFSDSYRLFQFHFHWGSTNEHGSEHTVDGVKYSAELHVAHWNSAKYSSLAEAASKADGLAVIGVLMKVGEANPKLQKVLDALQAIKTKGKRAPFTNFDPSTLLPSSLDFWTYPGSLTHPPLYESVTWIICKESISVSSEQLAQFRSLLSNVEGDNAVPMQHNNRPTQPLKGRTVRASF

This experiment addresses Carbonic anhydrase 1 (Homo sapiens, UniProt P00915). In words: ASSAY_NAME: ChEMBL_158304 (CHEMBL763189) DESCRIPTION: Inhibition of human carbonic anhydrase 2 preincubated for 15 mins by stopped-flow CO2 hydrase assay. The note with it: pH 7.5.

With `[O]=[V]([OH])([OH])[O][V](=[O])([OH])[OH]`, the inhibitory constant (Ki) amounted to 540 µM.

Usually Ki stands for a dissociation constant, usually derived from enzyme kinetics or from competition with a known ligand. A high value points to a looser hold on the target.
